Source: publication PMC3411462, “Long-acting κ opioid antagonists nor-BNI, GNTI and JDTic: pharmacokinetics in mice and lipophilicity” (BMC Pharmacology, 2012)

By UniProt entry, the sequences of proteins in these tests, tags left out.
UniProt P08183, whole entry: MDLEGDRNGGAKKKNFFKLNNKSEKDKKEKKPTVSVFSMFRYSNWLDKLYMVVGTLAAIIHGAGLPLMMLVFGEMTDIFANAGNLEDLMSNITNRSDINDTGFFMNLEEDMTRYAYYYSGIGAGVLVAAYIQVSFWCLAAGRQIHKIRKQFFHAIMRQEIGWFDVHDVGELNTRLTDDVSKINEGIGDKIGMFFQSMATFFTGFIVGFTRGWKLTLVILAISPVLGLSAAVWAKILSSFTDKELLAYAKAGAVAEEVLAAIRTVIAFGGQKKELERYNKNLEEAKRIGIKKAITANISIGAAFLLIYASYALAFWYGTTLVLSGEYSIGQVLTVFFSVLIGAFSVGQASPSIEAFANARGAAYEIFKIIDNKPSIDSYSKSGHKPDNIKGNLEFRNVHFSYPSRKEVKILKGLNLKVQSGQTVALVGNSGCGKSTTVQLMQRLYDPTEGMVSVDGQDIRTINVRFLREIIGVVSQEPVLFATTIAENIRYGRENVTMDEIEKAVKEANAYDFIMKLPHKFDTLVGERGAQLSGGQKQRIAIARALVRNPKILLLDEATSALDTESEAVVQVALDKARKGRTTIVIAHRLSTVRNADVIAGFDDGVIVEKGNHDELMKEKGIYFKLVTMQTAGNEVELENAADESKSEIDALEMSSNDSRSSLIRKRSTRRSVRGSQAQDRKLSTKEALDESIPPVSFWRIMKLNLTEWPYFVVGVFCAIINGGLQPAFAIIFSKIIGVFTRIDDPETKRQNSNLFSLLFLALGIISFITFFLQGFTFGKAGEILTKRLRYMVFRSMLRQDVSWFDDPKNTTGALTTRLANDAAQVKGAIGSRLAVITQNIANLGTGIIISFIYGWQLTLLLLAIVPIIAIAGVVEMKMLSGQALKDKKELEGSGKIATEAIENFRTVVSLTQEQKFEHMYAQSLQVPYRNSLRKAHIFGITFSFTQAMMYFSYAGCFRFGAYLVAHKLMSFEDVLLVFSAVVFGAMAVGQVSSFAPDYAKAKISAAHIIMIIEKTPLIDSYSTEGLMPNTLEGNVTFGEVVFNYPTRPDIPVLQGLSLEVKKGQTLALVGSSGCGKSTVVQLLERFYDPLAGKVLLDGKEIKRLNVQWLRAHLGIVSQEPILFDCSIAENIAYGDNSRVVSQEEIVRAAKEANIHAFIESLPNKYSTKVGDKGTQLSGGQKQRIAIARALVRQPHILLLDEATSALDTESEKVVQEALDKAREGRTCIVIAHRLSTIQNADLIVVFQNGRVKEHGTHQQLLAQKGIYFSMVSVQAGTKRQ

Columns and labels:
P-gp (human MDR1) = target: T1, P-gp (human MDR1) (Homo sapiens, UniProt P08183); experiment: LLC-PK1-MDR1 cell permeation and efflux; format: in vitro ADME; details: pig (LLC-PK1 cells) transfected with human MDR1; LLC-PK1-MDR1 monolayers; read-out: Efflux ratio (B → A/A → B)
T1 construct: expressed in transfected cells; host or cells: LLC-PK1 (pig kidney epithelial cells) transfected with human MDR1 at Amgen

[1] = Octanol-buffer distribution (log D7.4); format: physicochemical; details: mean, n = 3

Oc1ccc2c3c1O[C@H]1c4[nH]c5c(c4C[C@@]4(O)[C@@H](C2)N(CC2CC2)CC[C@]314)C[C@@]1(O)[C@H]2Cc3ccc(O)c4c3[C@@]1(CCN2CC1CC1)[C@H]5O4 [nor-BNI, norbinaltorphimine]
efflux ratio at 120 min, 5 μM (P-gp (human MDR1)): 1.5
Log10D7.4 octanol:buffer (pH 7.4) [1]: 1–3
Log10D7.4 octanol:buffer (pH 7.4) ([1]; listed as Nor-BNI): 1.5
